Amino acid sequences for entries named in this document (tags omitted).
UniProt P09874, whole entry: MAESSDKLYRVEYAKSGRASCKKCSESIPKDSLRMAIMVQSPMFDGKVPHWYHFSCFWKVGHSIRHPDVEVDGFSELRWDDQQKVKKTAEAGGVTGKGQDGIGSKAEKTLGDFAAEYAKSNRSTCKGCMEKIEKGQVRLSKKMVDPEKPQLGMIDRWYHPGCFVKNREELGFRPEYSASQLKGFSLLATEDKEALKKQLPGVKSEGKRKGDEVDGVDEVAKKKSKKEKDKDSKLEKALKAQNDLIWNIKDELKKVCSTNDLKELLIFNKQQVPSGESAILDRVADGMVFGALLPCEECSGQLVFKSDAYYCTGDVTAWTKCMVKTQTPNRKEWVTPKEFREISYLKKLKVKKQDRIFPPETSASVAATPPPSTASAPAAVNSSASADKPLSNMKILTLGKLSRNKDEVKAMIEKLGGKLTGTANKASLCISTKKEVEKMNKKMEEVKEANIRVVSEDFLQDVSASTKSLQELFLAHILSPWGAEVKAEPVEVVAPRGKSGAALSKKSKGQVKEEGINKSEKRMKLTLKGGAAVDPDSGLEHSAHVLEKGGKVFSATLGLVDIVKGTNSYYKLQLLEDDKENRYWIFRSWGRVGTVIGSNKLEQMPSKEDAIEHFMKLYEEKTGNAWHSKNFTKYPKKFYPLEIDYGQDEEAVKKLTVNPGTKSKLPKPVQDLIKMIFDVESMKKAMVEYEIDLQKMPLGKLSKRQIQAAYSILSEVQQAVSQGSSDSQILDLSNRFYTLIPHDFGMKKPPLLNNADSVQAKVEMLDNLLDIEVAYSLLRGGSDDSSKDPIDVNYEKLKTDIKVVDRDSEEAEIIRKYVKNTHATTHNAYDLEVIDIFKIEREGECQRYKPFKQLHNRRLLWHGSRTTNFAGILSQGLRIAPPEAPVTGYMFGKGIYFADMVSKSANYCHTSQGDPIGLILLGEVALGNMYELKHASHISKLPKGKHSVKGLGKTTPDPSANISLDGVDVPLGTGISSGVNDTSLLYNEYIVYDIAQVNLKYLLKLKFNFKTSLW

According to patent publication US8815891B2, “Tricyclic derivative or pharmaceutically acceptable salts thereof, preparation method thereof, and pharmaceutical composition containing the same” (Je Il Pharmaceutical Co., Ltd., priority 2008, dated 2014):

Molecular target: PARP-1 enzyme (Homo sapiens (Human), UniProt P09874)
Assay: Poly(ADP-ribose)polymerase [PARP-1] enzyme inhibitory activity (Trevigen PARP Assay kit)
Format: biochemical
Conditions: histone ribosylation, 450 nm

pIC50: 5.60
Substance: DPQ [reference compound]

pIC50: −log10 of the molar value.
